## Apparent affinities of Ab-14 variants for a coronavirus HR2 peptide

Binding partner: SARS-CoV-2 spike HR2 peptide, sequence PDVDLGDISGINAS.

Ab-14 is the parent antibody, in scFv form: VH, then a (GGGGS)3 linker, then VL. The light chain is unchanged in all variants.
VH: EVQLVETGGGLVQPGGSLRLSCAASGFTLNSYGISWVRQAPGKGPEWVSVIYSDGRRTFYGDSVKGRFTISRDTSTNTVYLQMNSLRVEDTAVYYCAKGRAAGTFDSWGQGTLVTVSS
VL: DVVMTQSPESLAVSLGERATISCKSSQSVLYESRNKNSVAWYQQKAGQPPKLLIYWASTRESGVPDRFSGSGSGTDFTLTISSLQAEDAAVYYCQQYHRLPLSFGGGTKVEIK

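The parent was found by panning a naive human phage display library on the peptide. This is the validation round: designs drawn from the data on random variants, tested in the same kind of assay. Several design methods are mixed in this list. AlphaSeq pools MATa yeast showing the antibodies with MATalpha yeast showing the peptide. Binding brings cells together so that they mate, and sequencing counts the barcode pairs among the diploids. Read counts were normalised to the haploid input and turned into Kd by a linear fit to BCL2-family pairs of known affinity, for each replicate. The assay was run in six technical replicates.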

Changes read parent residue, position, new residue, counted from the first residue of the VH shown. Variants here have at most six changes. Values are log10 of the apparent Kd in nM; lower means stronger binding. The mean shown is taken over the replicates in which the pair was detected. Where no diploid with the target was found in that replicate, the entry reads "nd": below detection, most likely a poor binder, though not proof of it. A sequence measured in both rounds can read differently, since the two assays cover different ranges. Of ten entries with the parent sequence, four were seen in most replicates (averages 0.34 to 2.37), three in one and three in none, so single entries are noisy. In the paper, a design with two or fewer of six values counts as a poor binder. As a blank, each scFv also met three strains without target: over all heavy chain designs, 1% of these pairings were detected, typically at 2.08 and seldom below 0.84. The control count says in how many pairings with the empty strains this scFv gave a signal, with their mean in brackets.

changes	log10 Kd, replicates	log10 Kd (nM), mean	empty controls
T28V+G61I+R100N	nd / 1.33 / 0.81 / 1.67 / 0.91 / 2.53	1.45	0 of 18
G61S+R100E+A102V	nd / nd / nd / nd / nd / nd	nd	0 of 18
N30E+A102K	nd / nd / nd / nd / nd / nd	nd	0 of 18
T28S+G61I+R100Q+S107K	2.00 / 1.92 / 1.35 / 2.52 / 2.78 / 2.39	2.16	0 of 18
N30D+I34T+I51S+F105A+D106L+S107P	nd / nd / nd / nd / nd / nd	nd	1 of 18 (1.94)
F27E+S31E+G103V+S107T	1.96 / 0.81 / nd / 0.93 / 0.88 / nd	1.14	0 of 18
T28G+S31D+G61I+S63T+R100N	0.47 / 0.89 / 0.68 / 1.08 / 1.59 / 0.48	0.86	0 of 18
T28D+G61S+R100K+S107T	0.55 / 0.15 / -0.56 / -0.16 / -0.03 / 0.08	0.01	0 of 18
T28K+A101E+G103S+D106T	nd / nd / 2.15 / nd / nd / nd	2.15	0 of 18
T28Q+S31E+G61D+S63Q+A101T	0.17 / -0.03 / 0.16 / -0.12 / -0.15 / 0.39	0.07	0 of 18
S31E+G61H+A101E+S107V	-0.04 / -0.13 / -0.12 / -0.37 / -0.10 / -0.05	-0.13	0 of 18
G26K+T28E+A101T+S107T	1.74 / 1.69 / 1.96 / nd / 0.42 / 3.00	1.76	0 of 18
T28D+S31C+R100E+S107K	nd / nd / 1.26 / nd / nd / 1.05	1.15	0 of 18
I51D+R56K+S63E	nd / nd / nd / nd / nd / nd	nd	0 of 18
T28S+S31E+D62C+A101N	nd / nd / nd / 3.11 / 3.04 / 3.35	3.17	0 of 18
T28S+S31E+S107V	1.46 / nd / 1.46 / 1.36 / 0.79 / 1.88	1.39	0 of 18
T28G+G61A+A101E	-0.08 / 0.26 / 0.37 / -0.47 / 0.01 / 0.39	0.08	0 of 18
T28W+S31D+G61H+S63K+A101T	1.25 / 0.73 / nd / 1.31 / 0.26 / 0.25	0.76	0 of 18
N30D+G61D+S63E+A101T	0.79 / 0.58 / 0.78 / 0.19 / 0.92 / 0.57	0.64	0 of 18
F27T+G61L+T104C+S107H	nd / nd / nd / nd / nd / nd	nd	0 of 18
G26K+T28E+S31N+A101T	2.62 / nd / 1.59 / 2.45 / 3.06 / nd	2.43	0 of 18
T28S+R100K+A101H	1.33 / 1.05 / 0.88 / 0.79 / 0.96 / 0.91	0.99	1 of 18 (2.08)
T28S+G61A+A101W+S107K	0.78 / 0.37 / 0.15 / 0.40 / 0.71 / 0.46	0.48	0 of 18
S31Y+S35H+G61S+A102G	nd / nd / nd / nd / nd / nd	nd	0 of 18
G26K+T28Q+S31E+G61T+A101C	nd / nd / nd / nd / nd / nd	nd	0 of 18
S31D+F59S+G61D+R100H+G103C	nd / nd / nd / nd / nd / nd	nd	0 of 18
N30E+G61A+S63R+A101T	nd / nd / 1.55 / nd / 3.60 / nd	2.57	0 of 18
S31E+G61D+G103V+S107Q	nd / nd / nd / nd / nd / nd	nd	0 of 18
T28D+S31E+S53A+G61T+R100E+A101Q	0.27 / 0.09 / -0.25 / -0.91 / 0.01 / -0.71	-0.25	0 of 18
T28D+R100Q+A101T	-0.17 / -0.70 / -0.28 / -0.10 / -0.71 / -0.28	-0.37	0 of 18
T28K+R56K+A101Q	nd / nd / nd / nd / nd / nd	nd	0 of 18
S63V+R100Q	nd / nd / nd / nd / nd / nd	nd	0 of 18
S31D+R100D+S107L	nd / 0.06 / -0.56 / -0.45 / nd / nd	-0.32	0 of 18
S31D+Y32F+S63F+G103L+D106I	0.36 / 0.78 / 1.31 / 1.63 / 0.93 / 0.55	0.93	1 of 18 (1.51)
T28D+S31E+S53A+F59A+G61V+R100E	0.58 / 0.35 / 0.68 / 0.35 / 0.54 / 0.53	0.50	0 of 18
R100A+A101E	0.63 / 0.36 / 0.14 / 0.52 / 0.79 / 1.05	0.58	0 of 18
S31E+R56S+G61T+A101N	-0.45 / -0.41 / -0.52 / -0.71 / -0.12 / -0.79	-0.50	0 of 18
F27Q+R100W	nd / nd / nd / nd / nd / nd	nd	0 of 18
T28V+G61A+S63D+R100N+A101V	0.87 / 0.25 / 0.74 / 0.47 / 1.60 / 0.23	0.70	1 of 18 (2.34)
T28Q+R100Q+S107L	nd / nd / 1.05 / nd / 0.47 / nd	0.76	0 of 18
T28S+S31T+A101T	0.25 / -0.17 / 0.17 / 0.24 / 0.71 / 0.06	0.21	0 of 18
S31D+R100S+S107Q	nd / -0.20 / -0.52 / nd / -0.07 / 0.52	-0.07	0 of 18
T28S+G61S+A101N	nd / nd / nd / nd / nd / nd	nd	0 of 18

Source: Li et al. 2023 (doi:10.1038/s41467-023-39022-2), MIT Lincoln Laboratory and A-Alpha Bio; data file from the FLAb repository.